Measured affinities in a library of Ab-14 light chain variants

The target is the same throughout: PDVDLGDISGINAS, from the HR2 region of SARS-CoV-2 spike.

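The starting antibody came from a phage panning campaign against this peptide. Designed CDR sequences, proposed from the first random library and measured here. Group labels follow the data file (Ctrl: baseline library sampled from a position-specific scoring matrix, with some repeated check sequences; Rand: our label for a block that the file lists under HC and that is probably the random mutants of the ten best first-round binders; En: ensemble of fine-tuned language models; GP: Gaussian process model; GPLM: also part of the Gaussian process libraries; HC: hill climbing; Gen: genetic algorithm; Gibbs: Gibbs sampling; a sequence that several methods proposed may carry one label only). AlphaSeq pools MATa yeast showing the antibodies with MATalpha yeast showing the peptide. Pairs that bind mate more often; barcode pairs of the diploids are counted by sequencing. Each replicate has its own calibration line, from reference interactions of the BCL2 family. Each pool was mated in six replicate cultures.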

The variants keep the heavy chain, the linker and the frameworks of Ab-14 (scFv order VH, three GGGGS repeats, VL).
VH: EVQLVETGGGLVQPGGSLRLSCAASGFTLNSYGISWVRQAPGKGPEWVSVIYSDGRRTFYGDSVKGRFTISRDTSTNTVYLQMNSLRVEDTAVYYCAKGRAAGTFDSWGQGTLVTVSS
VL: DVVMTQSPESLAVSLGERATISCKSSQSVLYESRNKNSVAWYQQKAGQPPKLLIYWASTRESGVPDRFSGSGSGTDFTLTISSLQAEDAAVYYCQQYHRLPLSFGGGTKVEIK

The whole VL of each variant is written out.
Values are apparent Kd, the geometric mean of the replicates that gave a signal; lower means stronger binding.
In the paper, a design with two or fewer of six values counts as a poor binder.
Of ten entries with the parent sequence, four were seen in most replicates (averages 2.2 nM to 240 nM), three in one and three in none, so single entries are noisy.
Values of this round are not directly comparable with the first-round values of the same sequences.
Nonspecific signal, from three strains lacking the peptide, appeared in 4% of pairings of all light chain designs, centred on 430 nM (5% of these signals below 38 nM); values are not corrected for it.

VL	group	apparent Kd	seen in
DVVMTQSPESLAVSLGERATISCTLYGLSNSMSKNKNSVAWYQQKAGQPPKLLIYEMTTREKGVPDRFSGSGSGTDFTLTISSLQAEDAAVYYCQQYDRLPLIFGGGTKVEIK	En_Gen	14 nM	6 of 6
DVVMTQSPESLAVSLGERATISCKSQQSWLYESRNKNSVAWYQQKAGQPPKLLIYGASSRESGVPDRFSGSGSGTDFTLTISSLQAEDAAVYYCQQYHRLPLSFGGGTKVEIK	GP_HC	240 pM	6 of 6
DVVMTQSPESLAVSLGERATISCKMSQSVLQGGRNDNSVAWYQQKAGQPPKLLIYSASTRCSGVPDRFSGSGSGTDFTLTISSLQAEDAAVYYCQQYHRLPLSFGGGTKVEIK	GP_Gibbs	5.0 nM	6 of 6
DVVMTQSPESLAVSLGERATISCHISIKLPGNWYMGDSVAWYQQKAGQPPKLLIYHSERRAEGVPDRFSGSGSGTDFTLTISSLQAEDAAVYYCQQYARLPLGFGGGTKVEIK	En_Gibbs	5.8 nM	6 of 6
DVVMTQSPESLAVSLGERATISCMLSEVLHMLGVKKNSIAWYQQKAGQPPKLLIYDLVLRANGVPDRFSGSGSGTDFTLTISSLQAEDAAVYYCQQYHRLPLSFGGGTKVEIK	En_Gen	15 nM	1 of 6
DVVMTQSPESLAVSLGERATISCKSLQSVEYESRDKNSVAWYQQKAGQPPKLLIYHASTREDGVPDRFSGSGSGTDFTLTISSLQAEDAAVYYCQQYHRLPLSFGGGTKVEIK	GP_HC	5.0 nM	6 of 6
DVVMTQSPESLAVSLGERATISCKIGQQVTYESTMNNAIAWYQQKAGQPPKLLIYQMTTREEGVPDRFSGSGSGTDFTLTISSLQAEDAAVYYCQQYHRLPLSFGGGTKVEIK	En_HC	2.3 nM	6 of 6
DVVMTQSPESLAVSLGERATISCKRSQTVLYESRNKNSVAWYQQKAGQPPKLLIYMASTRESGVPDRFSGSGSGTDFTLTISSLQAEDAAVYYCQQYHRLPLSFGGGTKVEIK	Ctrl	53 nM	6 of 6
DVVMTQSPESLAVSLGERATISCKSSESVLYESRNFNSVAWYQQKAGQPPKLLIYWASTRESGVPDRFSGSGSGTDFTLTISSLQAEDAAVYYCQQYHRLPLSFGGGTKVEIK	Ctrl	34 nM	2 of 6
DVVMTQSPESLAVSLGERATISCKLSQSVPYEERNKNSVAWYQQKAGQPPKLLIYNASQRESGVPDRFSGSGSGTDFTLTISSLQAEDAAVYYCQQYHRLPLSFGGGTKVEIK	GP_Gen	840 pM	6 of 6
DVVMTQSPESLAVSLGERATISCTISGVMMQMSHSKNNVAWYQQKAGQPPKLLIYEVSMRLDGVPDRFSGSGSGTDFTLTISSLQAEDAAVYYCQQYFRLPLEFGGGTKVEIK	En_Gen	30 nM	6 of 6
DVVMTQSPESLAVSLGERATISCMISDLTMYGSRSKNSVAWYQQKAGQPPKLLIYDLSTRGSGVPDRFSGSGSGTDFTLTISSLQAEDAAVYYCQQYHRLPLSFGGGTKVEIK	En_HC	1.6 nM	6 of 6

Second part, the sequence after the result:

apparent Kd	seen in	VL	group
6.2 nM	6 of 6	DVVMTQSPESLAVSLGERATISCKQSQWVLYEMRNKNSVAWYQQKAGQPPKLLIYDAWTRESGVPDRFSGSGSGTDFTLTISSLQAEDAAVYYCQQYHRLPLSFGGGTKVEIK	Rand
370 pM	6 of 6	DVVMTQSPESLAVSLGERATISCKLSQSVLYESRNKNNVAWYQQKAGQPPKLLIYGASTRLSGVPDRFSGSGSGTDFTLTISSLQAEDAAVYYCQQYHRLPLSFGGGTKVEIK	GP_Gen
11 nM	6 of 6	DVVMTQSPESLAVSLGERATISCKSSQSWLYESRNFWSVAWYQQKAGQPPKLLIYGASTREVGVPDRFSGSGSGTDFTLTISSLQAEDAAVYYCQQYHRLPLSFGGGTKVEIK	GP_HC
420 nM	3 of 6	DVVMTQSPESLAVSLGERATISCKSSQSVLYEGRNKNSVAWYQQKAGQPPKLLIYWASSRESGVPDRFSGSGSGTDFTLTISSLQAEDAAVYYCQQYHRLPLSFGGGTKVEIK	Ctrl
2.2 nM	6 of 6	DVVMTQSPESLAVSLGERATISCKVQQSVWYESRNKNSVAWYQQKAGQPPKLLIYEASTRESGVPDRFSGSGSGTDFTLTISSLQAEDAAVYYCQQYHRLPLSFGGGTKVEIK	GP_Gen
4.0 nM	6 of 6	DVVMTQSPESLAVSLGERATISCKIGGVTNGISKNKNSVAWYQQKAGQPPKLLIYEQSTREDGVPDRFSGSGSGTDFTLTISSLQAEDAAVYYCQQYNRLPLSFGGGTKVEIK	En_HC
1.6 nM	6 of 6	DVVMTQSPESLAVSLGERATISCKSSQSVLYESGNKNSVAWYQQKAGQPPKLLIYDASTRESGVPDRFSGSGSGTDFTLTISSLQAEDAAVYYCQQYHRLPLSFGGGTKVEIK	GPLM_HC
1.3 nM	6 of 6	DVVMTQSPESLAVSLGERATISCKLSQSTLYESRNKNSVAWYQQKAGQPPKLLIYHASTRLSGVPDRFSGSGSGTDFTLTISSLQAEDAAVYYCQQYHRLPLSFGGGTKVEIK	GP_Gen
1.0 nM	6 of 6	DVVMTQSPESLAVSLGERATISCKSSQGVLYEYANKNSVAWYQQKAGQPPKLLIYNASTRESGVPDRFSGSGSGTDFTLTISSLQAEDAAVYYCQQYHRLPLSFGGGTKVEIK	Ctrl
260 pM	6 of 6	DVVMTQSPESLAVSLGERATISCKSSQSWLYESRNKNNVAWYQQKAGQPPKLLIYGASERESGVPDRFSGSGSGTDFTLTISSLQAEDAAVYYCQQYHRLPLSFGGGTKVEIK	GP_HC
1.6 nM	6 of 6	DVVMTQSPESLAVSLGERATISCKFSDSVLLESRDKNSVAWYQQKAGQPPKLLIYNASTRESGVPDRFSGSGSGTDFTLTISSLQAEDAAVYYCQQYHRLPLSFGGGTKVEIK	GP_HC
9.3 nM	6 of 6	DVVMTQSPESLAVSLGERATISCNVGQLMDGESRNRNSVAWYQQKAGQPPKLLIYHQSTREDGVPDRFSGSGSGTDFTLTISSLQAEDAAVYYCQHYHRLPLSFGGGTKVEIK	En_HC

2 of these entries, quoted again:

VL	group	apparent Kd	seen in
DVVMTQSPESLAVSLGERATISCKSSESVLYESRNFNSVAWYQQKAGQPPKLLIYWASTRESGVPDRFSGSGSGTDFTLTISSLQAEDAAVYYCQQYHRLPLSFGGGTKVEIK	Ctrl	34 nM	2 of 6
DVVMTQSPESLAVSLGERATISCTISGVMMQMSHSKNNVAWYQQKAGQPPKLLIYEVSMRLDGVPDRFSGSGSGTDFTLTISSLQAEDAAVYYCQQYFRLPLEFGGGTKVEIK	En_Gen	30 nM	6 of 6

From the AlphaSeq antibody data of Li et al. 2023 (doi:10.1038/s41467-023-39022-2), copy in the FLAb collection.